Like-named read-outs stand apart in the source and are kept apart here.
What was measured:
[1] = system: nicotine receptor, rat brain membranes; assay type: binding
[2] = biological target: nicotine receptor, rat brain membranes; settings: read-out: 3H-MCC Binding IC50

SMILES	binding affinity [1]	IC50 ([1]; read-out: 3H-Nicotine Binding IC50) [µM]	IC50 [2] [µM]
CCN(CC)CCOC(=O)c1ccc(N)cc1 [procaine]	some binding affinity	–	–
COC(=O)[C@H]1[C@@H](OC(=O)c2ccccc2)C[C@@H]2CC[C@H]1N2C [cocaine]	inactive	> 100	> 100
